Target: the molecule itself
Test: sulfo-EGS crosslinking of serum-starved 293, H441, MDA-MB-435 and A549 cells, Met blot (self-association)
Procedure: Crosslinking studies were performed as previously described with modifications (Blechman et al., 1995). A549, H441, MDA-MB-435, and 293 cells were serum starved for 2 hrs with 0.5% BSA. The media was removed and replaced with PBS. Cells were then treated with the crosslinking agent sulfo-EGS (Pierce) at increasing concentrations according to the manufacturer's instructions. Similarly, 293 cells were plated into 6-well plates and transfected with 0.1-4 μg of the indicated constructs using Lipofectamine 2000 (Invitrogen). Twenty-four hours later, the media was replaced with PBS and cells were crosslinked with sulfo-EGS. Cells were then lysed with 1% NP40 lysis buffer with protease and phosphatase inhibitors. 10 μg of lysates in reducing sample buffer were then analyzed immediately on 8% or 4-12% Tris-glycine gels, transferred to nitrocellulose membranes, and blocked with 5% milk for 1 hour. Membranes were probed with 1:1000 Met C-12 (Santa Cruz) or 1:5000 V5 antibody overnight at 4° C. with rocking. After incubation of 1:5000 secondary antibodies, proteins were detected with ECL-Plus. […] 500 μg of crosslinked lysates were immunoprecipitated with either V5 or Flag antibody, analyzed on 8% Tris-glycine gels, transferred to nitrocellulose membranes, and immunoblotted with either 1:5000 V5 or 1:1000 Flag (Sigma) antibodies. Proteins were detected with ECL-Plus. […]

B1: endogenous Met receptor (c-Met) of cell lines (receptor, human, UniProt P08581 25-1390, looked up)
chain: ECKEALAKSEMNVNMKYQLPNFTAETPIQNVILHEHHIFLGATNYIYVLNEEDLQKVAEYKTGPVLEHPDCFPCQDCSSKANLSGGVWKDNINMALVVDTYYDDQLISCGSVNRGTCQRHVFPHNHTADIQSEVHCIFSPQIEEPSQCPDCVVSALGAKVLSSVKDRFINFFVGNTINSSYFPDHPLHSISVRRLKETKDGFMFLTDQSYIDVLPEFRDSYPIKYVHAFESNNFIYFLTVQRETLDAQTFHTRIIRFCSINSGLHSYMEMPLECILTEKRKKRSTKKEVFNILQAAYVSKPGAQLARQIGASLNDDILFGVFAQSKPDSAEPMDRSAMCAFPIKYVNDFFNKIVNKNNVRCLQHFYGPNHEHCFNRTLLRNSSGCEARRDEYRTEFTTALQRVDLFMGQFSEVLLTSISTFIKGDLTIANLGTSEGRFMQVVVSRSGPSTPHVNFLLDSHPVSPEVIVEHTLNQNGYTLVITGKKITKIPLNGLGCRHFQSCSQCLSAPPFVQCGWCHDKCVRSEECLSGTWTQQICLPAIYKVFPNSAPLEGGTRLTICGWDFGFRRNNKFDLKKTRVLLGNESCTLTLSESTMNTLKCTVGPAMNKHFNMSIIISNGHGTTQYSTFSYVDPVITSISPKYGPMAGGTLLTLTGNYLNSGNSRHISIGGKTCTLKSVSNSILECYTPAQTISTEFAVKLKIDLANRETSIFSYREDPIVYEIHPTKSFISGGSTITGVGKNLNSVSVPRMVINVHEAGRNFTVACQHRSNSEIICCTTPSLQQLNLQLPLKTKAFFMLDGILSKYFDLIYVHNPVFKPFEKPVMISMGNENVLEIKGNDIDPEAVKGEVLKVGNKSCENIHLHSEAVLCTVPNDLLKLNSELNIEWKQAISSTVLGKVIVQPDQNFTGLIAGVVSISTALLLLLGFFLWLKKRKQIKDLGSELVRYDARVHTPHLDRLVSARSVSPTTEMVSNESVDYRATFPEDQFPNSSQNGSCRQVQYPLTDMSPILTSGDSDISSPLLQNTVHIDLSALNPELVQAVQHVVIGPSSLIVHFNEVIGRGHFGCVYHGTLLDNDGKKIHCAVKSLNRITDIGEVSQFLTEGIIMKDFSHPNVLSLLGICLRSEGSPLVVLPYMKHGDLRNFIRNETHNPTVKDLIGFGLQVAKGMKYLASKKFVHRDLAARNCMLDEKFTVKVADFGLARDMYDKEYYSVHNKTGAKLPVKWMALESLQTQKFTTKSDVWSFGVLLWELMTRGAPPYPDVNTFDITVYLLQGRRLLQPEYCPDPLYEVMLKCWHPKAEMRPSFSELVSRISAIFSTFIGEHYVHVNATYVNVKCVAPYPSLLSSEDNADDEVDTRPASFWETS
notes: whole, on cells; Processed on the cell surface into disulfide-linked α and β subunits; In the 5D5 immunoprecipitation it stood in lysates of 293 cells; also called Met-M; Met-D
  binding result: binds

Reference: patent US20100016241A1 (Genentech, published 2010)
